Literature values, collected in paper PMC8037809, “Biomimetic Chromatographic Studies Combined with the Computational Approach to Investigate the Ability of Triterpenoid Saponins of Plant Origin to Cross the Blood–Brain Barrier” (International Journal of Molecular Sciences, 2021).

Design: method as in earlier work
Conditions: experimentally obtained; QSAR training and test sets; cited from earlier work

| Compound | logBB |
| --- | --- |
| COc1ccc2c3c1O[C@H]1[C@@H](O)C=C[C@H]4[C@@H](C2)N(C)CC[C@@]341 [76-57-3] | 0.08 |
| Cn1cnc2c1c(=O)[nH]c(=O)n2C [83-67-0] | –0.29 |
| CC(=O)Nc1ccc(O)cc1 [103-90-2] | –0.74 |
| C=CCC1(C(C)C#CCC)C(=O)NC(=O)N(C)C1=O (stereo not shown) [151-83-7] | –0.06 |
| COc1ccc2c3c1O[C@H]1C[C@@H](O)C=C[C@@]31CCN(C)C2 [357-70-0] | 0.32 |
| O=C1CN=C(c2ccccc2)c2cc(Cl)ccc2N1 [1088-11-5] | 0.61 |
| Nc1ccn([C@H]2CC[C@@H](CO)O2)c(=O)n1 [7481-89-2] | –1.5 |
| C=CCc1ccccc1OCC(O)CNC(C)C (stereo not shown) [13655-52-2] | –0.23 |
| OCc1ncc2n1-c1ccc(Cl)cc1C(c1ccccc1F)=NC2 [59468-90-5] | –0.07 |
| CN/C(=C\[N+](=O)[O-])NCCSCc1ccc(CN(C)C)o1 [66357-35-5] | 0.32 |
| Cc1ccc(-c2nc3ccc(C)cn3c2CC(=O)N(C)C)cc1 [82626-48-0] | 0.12 |
| CCN(C)C(=O)Oc1cccc([C@H](C)N(C)C)c1 [123441-03-2] | 0.88 |
| Cc1ccnc2c1NC(=O)c1cccnc1N2C1CC1 [129618-40-2] | 0 |
